According to patent publication US20250101040A1:

Test system: 22Rv1 cells
Assay: In vitro cell proliferation inhibition assay 1 (CCK8)
Assay type: cell-based
Details: read-out: 22Rv1/IC50/μM, ATM mutated human prostate cancer cell 22Rv1, 120 hours

IC50: 0.59 µM
Structure (SMILES): Cc1n[nH]c(C)c1-c1cc(N2CC3CCC(C2)O3)nc2c(-c3ccn[nH]3)cnn12
